For 19 compounds, IC50 results are on record in patent US20250368649A1, “TETRAHYDROPYRIDOPYRIMIDINE PAN-KRAS INHIBITORS” (Mirati Therapeutics, Inc., priority 2022, published 2025).

The chains behind the UniProt entries cited, without tags or fusion partners. Where a name states a change or a piece, a line headed by the entry shows the natural chain unless it says otherwise.
UniProt P01116: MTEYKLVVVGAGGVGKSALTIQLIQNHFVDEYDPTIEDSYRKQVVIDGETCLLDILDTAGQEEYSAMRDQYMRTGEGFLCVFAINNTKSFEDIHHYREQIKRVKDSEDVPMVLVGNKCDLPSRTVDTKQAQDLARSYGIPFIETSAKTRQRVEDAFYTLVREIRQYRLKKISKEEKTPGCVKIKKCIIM

Usually IC50 stands for the concentration needed to halve the response being measured. Low values mean greater potency, high ones weaker potency.

A value given as a limit tells only on which side of the number the result lay.

Experiment in all cases: biochemical
For experiment [1], the target named is KRas G12D (Homo sapiens, UniProt P01116, G12D). The note with it: Binding to KRas (IC50 nM) G12D, TR-FRET displacement. A general note: Time-resolved FRET reads energy transfer from a long-lived donor to a nearby acceptor.
The target in experiment [2] is KRas G12R (Homo sapiens, UniProt P01116, G12R). The following applies: Binding to KRas (IC50 nM) G12R, TR-FRET displacement.
Experiment [3] deals with KRas G12V (Homo sapiens, UniProt P01116, G12V). The following applies: Binding to KRas (IC50 nM) G12V, TR-FRET displacement.

As for `CCc1c(F)ccc2cc(O)cc(N3CCc4c(nc(N5CC(N(C)C)C5)nc4N4CCC[C@@](C)(O)C4)C3)c12` [Example 434, (R)-1-(2-(3-(dimethylamino)azetidin-1-yl)-7-(8-ethyl-7-fluoro-3-hydroxynaphthalen-1-yl) -5,6,7,8-tetrahydropyrido [3,4-d]pyrimidin-4-yl)-3-methylpiperidin-3-ol], the IC50 in experiment [1] stood at 397 nM; in experiment [2], 498 nM; in experiment [3] it was 342 nM.
As for `C[C@@H]1C[C@@H]1c1c(Cl)cc2[nH]ncc2c1N1CCc2c(nc(OC[C@@]34CCCN3C[C@H](F)C4)nc2N2CCC[C@]3(C2)NC(=O)NC3=O)C1` [Example 448, (R)-7-(7-(6-chloro-5-((1S,2R)-2-methylcyclopropyl)-1H-indazol-4-yl)-2-(((2R,7aS)-2-fluorohexahydro-1H-pyrrolizin-7a-yl)methoxy)-5,6,7,8-tetrahydropyrido[3,4-d]pyrimidin-4-yl)-1,3,7-triazaspiro[4.5]decane-2,4-dione], the IC50 is 3 nM in experiment [1], 2 nM in experiment [2] and under 2 nM in experiment [3].
For the compound `O=S1(=O)CCC2(CCCN(c3nc(OC[C@@]45CCCN4C[C@H](F)C5)nc4c3CCN(c3cc(O)cc5ccc(F)c(Cl)c35)C4)C2)C1` (stereo partly drawn) [Example 465, 7-(7-(8-chloro-7-fluoro-3-hydroxynaphthalen-1-yl)-2-(((2R,7aS)-2-fluorohexahydro-1H-pyrrolizin-7a-yl)methoxy)-5,6,7,8-tetrahydropyrido[3,4-d]pyrimidin-4-yl)-2-thia-7-azaspiro[4.5]decane 2,2-dioxide], the IC50 in experiment [1], in experiment [2] and in experiment [3] was under 2 nM each time.
In the case of `O=S1(=O)NCC(CNc2nc(OC[C@@]34CCCN3C[C@H](F)C4)nc3c2CCN(c2cc(O)cc4ccc(F)c(Cl)c24)C3)N1` (stereo partly drawn) [Example 466, 3-(((7-(8-chloro-7-fluoro-3-hydroxynaphthalen-1-yl)-2-(((2R,7aS)-2-fluorohexahydro-1H-pyrrolizin-7a-yl)methoxy)-5,6,7,8-tetrahydropyrido[3,4-d]pyrimidin-4-yl)amino)methyl)-1,2,5-thiadiazolidine 1,1-dioxide], the concentration for half-maximal inhibition (IC50) in experiment [1] was 83 nM; in experiment [2] it was 15 nM; in experiment [3], 14 nM.
In the case of `O=C1NC(=O)[C@]2(CCCN(c3nc(OC[C@@]45CCCN4C[C@H](F)C5)nc4c3CCN(c3c(C5CC5)c(Cl)cc5[nH]ncc35)C4)C2)N1` [Example 470, (R)-7-(7-(6-chloro-5-cyclopropyl-1H-indazol-4-yl)-2-(((2R,7aS)-2-fluorohexahydro-1H-pyrrolizin-7a-yl)methoxy)-5,6,7,8-tetrahydropyrido[3,4-d]pyrimidin-4-yl)-1,3,7-triazaspiro[4.5]decane-2,4-dione], the IC50 in experiment [1], in experiment [2] and in experiment [3] was under 2 nM each time.
With `O=C1NC(=O)C2(CCCN(c3nc(OC[C@@]45CCCN4C[C@H](F)C5)nc4c3CCN(c3c5ccccc5cc5[nH]ncc35)C4)C2)N1` (stereo partly drawn) [Example 472, 7-(7-(1H-benzo[f]indazol-4-yl)-2-(((2R,7aS)-2-fluorohexahydro-1H-pyrrolizin-7a-yl)methoxy)-5,6,7,8-tetrahydropyrido[3,4-d]pyrimidin-4-yl)-1,3,7-triazaspiro [4.5]decane-2,4-dione], the IC50 was 7 nM in experiment [1], under 2 nM in experiment [2] and 5 nM in experiment [3].
Take `CCc1cccc2cccc(N3CCc4c(nc(OCC56CCCN5CCC6)nc4C4=CCOCCC4)C3)c12` [Example 474, 7-(8-ethylnaphthalen-1-yl)-2-((hexahydro-1H-pyrrolizin-7a-yl)methoxy)-4-(2,5,6,7-tetrahydrooxepin-4-yl)-5,6,7,8-tetrahydropyrido[3,4-d]pyrimidine]: the IC50 in experiment [1] stood at 79500 nM; in experiment [2], 51700 nM; in experiment [3], 48500 nM.
With `CCc1cccc2cccc(N3CCc4c(nc(OCC56CCCN5CCC6)nc4N4CCn5ncc(P(C)(C)=O)c5C4)C3)c12` [Example 475, (5-(7-(8-ethylnaphthalen-1-yl)-2-((tetrahydro-1H-pyrrolizin-7a(5H)-yl)methoxy)-5,6,7,8-tetrahydropyrido[3,4-d]pyrimidin-4-yl)-4,5,6,7-tetrahydropyrazolo[1,5-a]pyrazin-3-yl)dimethylphosphine oxide], the figures for the IC50 in experiment [1], in experiment [2] and in experiment [3] were 6600 nM, 13200 nM and 8630 nM, respectively.
Take `CCc1cccc2cccc(N3CCc4c(nc(OCC56CCCN5CCC6)nc4N4CCn5nc(P(C)(C)=O)cc5C4)C3)c12` [Example 476, (5-(7-(8-ethylnaphthalen-1-yl)-2-((tetrahydro-1H-pyrrolizin-7a(5H)-yl)methoxy)-5,6,7,8-tetrahydropyrido[3,4-d]pyrimidin-4-yl)-4,5,6,7-tetrahydropyrazolo[1,5-a]pyrazin-2-yl)dimethylphosphine oxide]: the IC50 in experiment [1] came out at 5370 nM; in experiment [2], 8990 nM; in experiment [3], 16900 nM.
`CCc1cccc2cccc(N3CCc4c(nc(OCC56CCCN5CCC6)nc4N4CCCc5[nH]cnc5C4)C3)c12` [Example 477, 5-(7-(8-ethylnaphthalen-1-yl)-2-((hexahydro-1H-pyrrolizin-7a-yl)methoxy)-5,6,7,8-tetrahydropyrido[3,4-d]pyrimidin-4-yl)-1,4,5,6,7,8-hexahydroimidazo[4,5-c]azepine]: the IC50 was 2030 nM in experiment [1], 1400 nM in experiment [2] and 1670 nM in experiment [3].
For the compound `CCc1cccc2cccc(N3CCc4c(nc(OCC56CCCN5CCC6)nc4C4CCCOCC4)C3)c12` (stereo not drawn) [Example 478, 7-(8-ethylnaphthalen-1-yl)-2-((hexahydro-1H-pyrrolizin-7a-yl)methoxy)-4-(oxepan-4-yl)-5,6,7,8-tetrahydropyrido[3,4-d]pyrimidine], the IC50 turned out to be 24700 nM in experiment [1], 13000 nM in experiment [2] and 14500 nM in experiment [3].
Consider `CCSc1ccc2cc(O)cc(N3CCc4c(nc(OC[C@@]56CCCN5C[C@H](F)C6)nc4N4CCCC5(CNS(=O)(=O)N5)C4)C3)c2c1F` (stereo partly drawn) [Example 510, 7-(7-(7-(ethylthio)-8-fluoro-3-hydroxynaphthalen-1-yl)-2-(((2R,7aS)-2-fluorohexahydro-1H-pyrrolizin-7a-yl)methoxy)-5,6,7,8-tetrahydropyrido[3,4-d]pyrimidin-4-yl)-2-thia-1,3,7-triazaspiro[4.5]decane 2,2-dioxide], for which the figures for the IC50 in experiment [1], in experiment [2] and in experiment [3] were 39 nM, 158 nM and 47 nM, respectively.
As for `Cc1cc2[nH]ncc2c(N2CCc3c(nc(OCC4(CN(C)C)CC4)nc3N3CCCC4(CNS(=O)(=O)N4)C3)C2)c1C` (stereo not drawn) [Example 511, 7-(7-(5,6-dimethyl-1H-indazol-4-yl)-2-((1-((dimethylamino)methyl)cyclopropyl)methoxy)-5,6,7,8-tetrahydropyrido[3,4-d]pyrimidin-4-yl)-2-thia-1,3,7-triazaspiro[4.5]decane 2,2-dioxide], the 50% inhibitory concentration (IC50) in experiment [1] turned out to be 13 nM; in experiment [2], 47 nM; in experiment [3] it was 15 nM.
Turning to `CCc1cccc2cccc(N3CCc4c(nc(OCC5(CN(C)C)CC5)nc4NCC(O)Cn4cccn4)C3)c12` (stereo not drawn) [Example 526, 1-((2-((1-((dimethylamino)methyl)cyclopropyl)methoxy)-7-(8-ethylnaphthalen-1-yl)-5,6,7,8-tetrahydropyrido[3,4-d]pyrimidin-4-yl)amino)-3-(1H-pyrazol-1-yl)propan-2-ol], the IC50 in experiment [1] turned out to be 5830 nM; in experiment [2], 9170 nM; in experiment [3] it was 5810 nM.
Regarding `CCc1cccc2cccc(N3CCc4c(nc(OCC56CCCN5CCC6)nc4C(=O)NC)C3)c12` [Example 591, 7-(8-ethylnaphthalen-1-yl)-N-methyl-2-((tetrahydro-1H-pyrrolizin-7a(5H)-yl)methoxy)-5,6,7,8-tetrahydropyrido[3,4-d]pyrimidine-4-carboxamide], the IC50 in experiment [1] was 37700 nM; in experiment [2] it was over 100000 nM; in experiment [3], 37600 nM.
Consider `O=S1(=O)NCC2(CCCN(c3nc(OC[C@@]45CCCN4C[C@H](F)C5)nc4c3CCN(c3c5ccccc5cc5[nH]ncc35)C4)C2)N1` (stereo partly drawn) [Example 612, 7-(7-(1H-benzo[f]indazol-4-yl)-2-(((2R,7aS)-2-fluorotetrahydro-1H-pyrrolizin-7a(5H)-yl)methoxy)-5,6,7,8-tetrahydropyrido[3,4-d]pyrimidin-4-yl)-2-thia-1,3,7-triazaspiro[4.5]decane 2,2-dioxide], for which the IC50 in experiment [1], in experiment [2] and in experiment [3] was under 2 nM throughout.
In the case of `CC1(O)CCCN(c2nc(OCC34CCCN3CCC4)nc3c2CCN(c2ccc(F)c4sc(N)nc24)C3)C1` (stereo not drawn) [Example 625, 1-(7-(2-amino-7-fluorobenzo[d]thiazol-4-yl)-2-((tetrahydro-1H-pyrrolizin-7a(5H)-yl)methoxy)-5,6,7,8-tetrahydropyrido[3,4-d]pyrimidin-4-yl)-3-methylpiperidin-3-ol], the IC50 in experiment [1] came out at 12200 nM; in experiment [2], 25900 nM; in experiment [3], 12800 nM.
Consider `Nc1nc2c(N3CCc4c(nc(OCC56CCCN5CCC6)nc4N4CCCC5(C4)NC(=O)NC5=O)C3)ccc(F)c2s1` (stereo not drawn) [Example 626, 7-(7-(2-amino-7-fluorobenzo[d]thiazol-4-yl)-2-((tetrahydro-1H-pyrrolizin-7a(5H)-yl)methoxy)-5,6,7,8-tetrahydropyrido[3,4-d]pyrimidin-4-yl)-1,3,7-triazaspiro[4.5]decane-2,4-dione], for which the IC50 was 6470 nM in experiment [1], 2300 nM in experiment [2] and 3030 nM in experiment [3].
For the compound `CCc1c(F)ccc2cc(O)cc(N3CCc4c(nc(N5CC(N)C5)nc4N4CCCC5(C4)NC(=O)NC5=O)C3)c12` (stereo not drawn) [Example 627, 7-(2-(3-aminoazetidin-1-yl)-7-(8-ethyl-7-fluoro-3-hydroxynaphthalen-1-yl)-5,6,7,8-tetrahydropyrido[3,4-d]pyrimidin-4-yl)-1,3,7-triazaspiro[4.5]decane-2,4-dione], the values for the concentration for half-maximal inhibition (IC50) in experiment [1], in experiment [2] and in experiment [3] were 42 nM, 23 nM and 23 nM, respectively.
